Data: ChEMBL document CHEMBL4834454, “Rational design of cannabinoid type-1 receptor allosteric modulators: Org27569 and PSNCBAM-1 hybrids” (Bioorg Med Chem, 2021)
Calls of active or inactive are those of the source. No cut-off for these calls is given here.

Sequences of proteins named here, by UniProt entry; tags and fusion partners are left off.
UniProt P21554, whole entry: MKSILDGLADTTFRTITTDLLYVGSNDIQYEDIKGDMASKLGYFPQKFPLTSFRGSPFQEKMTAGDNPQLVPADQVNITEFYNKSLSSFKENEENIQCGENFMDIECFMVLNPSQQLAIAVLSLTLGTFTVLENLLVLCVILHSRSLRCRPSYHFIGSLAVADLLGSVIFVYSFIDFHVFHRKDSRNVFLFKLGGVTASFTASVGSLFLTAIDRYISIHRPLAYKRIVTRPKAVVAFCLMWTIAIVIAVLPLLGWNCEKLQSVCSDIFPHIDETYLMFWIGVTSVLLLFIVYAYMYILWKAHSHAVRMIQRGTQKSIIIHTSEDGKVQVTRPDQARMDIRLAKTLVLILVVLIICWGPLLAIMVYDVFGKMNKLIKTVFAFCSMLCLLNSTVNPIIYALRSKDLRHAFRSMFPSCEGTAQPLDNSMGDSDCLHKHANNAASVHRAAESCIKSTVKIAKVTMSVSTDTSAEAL

How the values were obtained:
Cannabinoid receptor 1 [1] = biological target: T1, Cannabinoid receptor 1 (Homo sapiens, UniProt P21554); assay: Allosteric antagonist activity at human CB1 receptor expressed in HEK293 cell membrane assessed as inhibition of CP55940-stimulated [35S]GTPgammaS binding incubated for 60 mins by [35S]GTP-gammaS binding assay; format: functional, cell membranes; details: filed as allosteric antagonist
Cannabinoid receptor 1 [2] = biological target: T1, Cannabinoid receptor 1; assay: Incomplete insurmountable allosteric antagonist activity at human CB1 receptor expressed in CHO-RD-HGA16 cells overexpressing Galpha16 assessed as inhibition of CP55940-stimulated calcium mobilization preincubated for 15 mins followed by agonist addition and measured every 1 sec for 90 secs by Calcium-3 dye based FLIPR assay relative to control; format: functional, cell-based; details: time 990.0 sec
Cannabinoid receptor 1 [3] = biological target: T1, Cannabinoid receptor 1; assay: Incomplete insurmountable allosteric antagonist activity at human CB1 receptor expressed in HEK293 cell membrane assessed as inhibition of CP55940-stimulated [35S]GTPgammaS binding incubated for 60 mins by [35S]GTP-gammaS binding assay relative to control; format: functional, cell membranes; details: filed as allosteric antagonist
Cannabinoid receptor 1 [4] = biological target: T1, Cannabinoid receptor 1; assay: Incomplete insurmountable allosteric antagonist activity at human CB1 receptor expressed in HEK293 cell membrane assessed as inhibition of CP55940-stimulated [35S]GTPgammaS binding at 100 uM incubated for 60 mins by [35S]GTP-gammaS binding assay; format: functional, cell membranes

`O=C(NCCc1ccc(N2CCCCC2)cc1)Nc1ccc(Cl)cc1` gave a Kb (Cannabinoid receptor 1 [1]) of 38 µM, an inhibition (Cannabinoid receptor 1 [2]) of 26.4% and an inhibition (Cannabinoid receptor 1 [3]) of 64.6%. For the same molecule, the Activity (Cannabinoid receptor 1 [4]) was “inactive”.
